# Measurements reported in patent US6512136B1, “Substituted 2-phenyl-1-(3,4-dihydroxy-5-nitrophenyl)-1-ethanones, their use in the treatment of some central and peripheral nervous system disorders and pharmaceutical compositions containing them” (Portela & C.A., S.A., priority 1998, dated 2003).
# Tests used:
# liver COMT = target: T1, liver COMT (Rattus norvegicus, UniProt P22734); assay: Liver COMT activity in homogenates after administration of test compounds by gastric tube; type: in vivo; details: for % inhibition of COMT activity, liver, 9 h: 9 h after administration by gastric tube
# T1 construct: Aliquots of 0.5 ml of liver and whole brain homogenates were preincubated; from tissue; host or cells: liver homogenate of male Wistar rats
# T1 sequence (P22734 44-264 limits assumed): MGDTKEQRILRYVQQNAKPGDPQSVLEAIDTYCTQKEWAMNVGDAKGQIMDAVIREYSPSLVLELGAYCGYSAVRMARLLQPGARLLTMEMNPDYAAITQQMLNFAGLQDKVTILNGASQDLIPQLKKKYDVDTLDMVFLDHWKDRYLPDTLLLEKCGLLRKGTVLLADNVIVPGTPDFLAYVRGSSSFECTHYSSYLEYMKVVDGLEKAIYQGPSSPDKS
# brain COMT = target: T2, brain COMT (Rattus norvegicus, UniProt P22734); assay: Brain COMT activity in homogenates after administration of test compounds by gastric tube; type: in vivo
# T2 construct: Aliquots of 0.5 ml of liver and whole brain homogenates were preincubated; from tissue; host or cells: whole brain homogenate of male Wistar rats
# T2 sequence (P22734 1-264): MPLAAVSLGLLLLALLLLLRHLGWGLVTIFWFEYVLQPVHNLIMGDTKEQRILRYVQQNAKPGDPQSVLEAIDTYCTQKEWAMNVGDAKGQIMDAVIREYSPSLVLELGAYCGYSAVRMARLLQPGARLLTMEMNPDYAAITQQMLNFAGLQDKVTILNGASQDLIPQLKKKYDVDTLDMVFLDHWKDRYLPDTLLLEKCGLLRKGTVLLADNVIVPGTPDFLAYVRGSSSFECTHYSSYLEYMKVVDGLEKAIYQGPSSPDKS
# rat liver COMT = target: T3, rat liver COMT (Rattus norvegicus, UniProt P22734); assay: In vitro COMT inhibition, rat liver homogenate (methylation of adrenaline to metanephrine); type: biochemical
# T3 construct: Aliquots of 0.5 ml of liver and whole brain homogenates were preincubated; from tissue; host or cells: liver homogenate of male Wistar rats
# T3 sequence (P22734 44-264 limits assumed): T1 sequence (P22734 44-264 limits assumed)
compound,measurement,setting,value
"O=C(Cc1ccccc1)c1cc(O)c(O)c([N+](=O)[O-])c1 [Compound B, 1-(3,4-Dihydroxy-5-nitrophenyl)-2-phenyl-1-ethanone]","% inhibition of COMT activity, liver, 0.5 h","liver COMT; rat liver homogenate, 0.5 h after administration by gastric tube, mean ± S.E.M., n=4",98.6 ± 0.4%
same,"% inhibition of COMT activity, liver, 1 h","liver COMT; rat liver homogenate, 1 h after administration by gastric tube, mean ± S.E.M., n=4",96.7 ± 1.7%
same,"% inhibition of COMT activity, liver, 3 h","liver COMT; rat liver homogenate, 3 h after administration by gastric tube, mean ± S.E.M., n=4",96.2 ± 0.8%
same,"% inhibition of COMT activity, liver, 6 h","liver COMT; rat liver homogenate, 6 h after administration by gastric tube, mean ± S.E.M., n=4",75.9 ± 4.2%
same,"% inhibition of COMT activity, liver, 9 h","liver COMT; rat liver homogenate, mean ± S.E.M., n=4",69.8 ± 3.6%
same,"% inhibition of COMT activity, liver, 9 h","liver COMT; rat liver homogenate, mean ± S.E.M., n=4, listed as compound B",~70%
same,ED50,"liver COMT; rat, po, read-out: ED50 for inhibiting liver COMT",0.7 ± 1.1 mg/kg
same,potency at inhibiting brain COMT compared with tolcapone,"brain COMT; after oral administration, FIG. 1",much less potent than tolcapone
same,"% inhibition of COMT activity, brain, 0.5 h","brain COMT; rat brain homogenate, 0.5 h after administration by gastric tube, mean ± S.E.M., n=4",83.6 ± 1.3%
same,"% inhibition of COMT activity, brain, 1 h","brain COMT; rat brain homogenate, 1 h after administration by gastric tube, mean ± S.E.M., n=4",80.9 ± 2.7%
same,"% inhibition of COMT activity, brain, 3 h","brain COMT; rat brain homogenate, 3 h after administration by gastric tube, mean ± S.E.M., n=4",65.0 ± 3.9%
same,"% inhibition of COMT activity, brain, 6 h","brain COMT; rat brain homogenate, 6 h after administration by gastric tube, mean ± S.E.M., n=4",31.5 ± 3.2%
same,"% inhibition of COMT activity, brain, 9 h","brain COMT; rat brain homogenate, 9 h after administration by gastric tube, mean ± S.E.M., n=4",21.9 ± 2.7%
same,ED50,"brain COMT; rat, po, read-out: ED50 for inhibiting brain COMT",5.3 ± 1.1 mg/kg
same,IC50,rat liver COMT,696 nM
